A549 viability – kills or reduces viability of A549 cells in Nrf2 counter-screen | A549 ARE-Fluc cells, CellTiter-Fluor viability, 18-24 h | Potency, µM (top dose mostly 46 µM), actives largely listed as inhibitors | 0.16% of 390,000 active
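A549 ARE_Fluc cells in 5% FBS OPTI-MEM were exposed to compounds in concentration-response for 18-24 h at 37 deg C. Viability was read by CellTiter-Fluor fluorescence (Ex 405/Em 525) after 30 min, before the luciferase read.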
Nrf2 activator – Nrf2 pathway activation | AID 624171 | 0.31% of 410,000 active | Potency, µM (titrated, usually from 46.1 µM), most hits filed as activators | AREc32 ARE-luciferase reporter (MCF7-derived line), luminescence, 24 h; further: nearly all actives have a fitted effect of over 65% in size
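Nrf2 activation is followed as ARE-luciferase induction in the AREc32 line after one day of compound treatment; luminescence is read with Steady-Glo.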
miR-21 FLuc – miR-21 reporter, rising signal. HeLa miR-21 FLuc reporter, luciferase, 48 h. Potency, µM (highest dose often 38.3 µM). 340,000 tested, under 10 active. AID 2288; active = well fitted rising curve with a large enough effect; inconclusive = small, poorly fitted or top-dose-only effect; inactive = no such curve, though single readings can be large or run the other way;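 further: miR-21 action dims this reporter so a rising signal means less miR-21 action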
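Using DMEM plus 10% FBS, HeLa miR-21-FLuc cells are incubated with test compounds (final up to about 40uM) for 48 hours; firefly luciferase signal is then imaged following reagent-mediated lysis.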
Nrf2 block – inhibitors of Nrf2 signaling; A549 ARE-Fluc reporter, luciferase luminescence, 18-24 h; Potency, µM (series often up to 46 µM), usual class: inhibitors; AID 504444; 2.1% of 360,000 active; further: nearly all actives have a fitted effect of over 60% in size
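In this cell-based qHTS, ARE-driven firefly luciferase in A549 cells reports Nrf2 activity; the luminescent signal after BugLite lysis is the measured value, with a prior CellTiter-Fluor read for cell health.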
ClpP mod – qHTS Assay for Activators of ClpP; ATP-dependent Clp protease proteolytic subunit (Bacillus subtilis (strain 168)), P80244; purified B. subtilis ClpP, FRET peptide cleavage, 20 min; Potency, µM (series often up to 57.5 µM); 1.9% of 340,000 active; active means well fitted falling curve with a large enough effect; inconclusive means small, poorly fitted or top-dose-only effect; inactive means no such curve, though single readings can be large or run the other way; further: the source files actives as falling curves though it sought activators and does not explain the sign; nearly all actives have a fitted effect of over 65% in size
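Buffer: 100 mM Tris/HCl pH8, 100 mM KCl, 0.05% low protease BSA, 2.5% glycerol, 0.01% Tween-20. ClpP 10 microg/mL final; 20 min RT; delta FRET normalized to ADEP and DMSO controls.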
p53 reactivator – mutant p53 re-activation in reporter cells; AID 504706; Potency, µM (series often up to 92.2 µM), most hits filed as activators; H1299 p53-A138V BP100-luciferase reporter, luminescence, 24 h; 0.063% of 320,000 active; further: nearly all actives have a fitted effect of over 45% in size
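H1299 (p53-null), stable ts p53-A138V + BP100-Luc; 1000 cells/well, Opti-MEM/10% FBS; cpd 4 pt, 1:5; 24 h, 37 deg C, 5% CO2; detection reagent 10 min RT; luminescence.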
Each line names hits and unclear results; the compound was inactive in the other large screens. Compounds with a hit are over-represented: about 3.7% of the library has one in this group of screens. Unless noted, the call rests on the fitted dose curve; in most records, active means well fitted curve in the direction sought with a large enough effect; inconclusive means small, poorly fitted or top-dose-only effect, or another doubt; inactive means no such curve, though single readings can be large; an effect the other way counts as inactive or inconclusive.

Cc1cc(C)cc(NC(=O)COc2cccc3c(=O)n(C)ccc23)c1	none (no result: Nrf2 block, p53 reactivator)
CC(=O)c1ccc(OCC(O)CN2CCN(S(=O)(=O)c3c(C)c(C)cc(C)c3C)CC2)cc1 (stereo not given)	A549 viability inconclusive, Nrf2 block 26µM
CC(=O)c1ccc(OCC(O)CN2CCN(CC(O)COc3ccc(C(C)=O)cc3)CC2)cc1 (stereo not given)	none
Cc1cc(C)n(CCc2nc3c4ccccc4nc(N4CCN(c5ccccc5F)CC4)n3n2)n1	none (no result: p53 reactivator)
Cc1ccc(C)c(N2CCN(CCCNC(=O)c3cnn(-c4ccc(F)cc4)c3C3CCN(C(=O)OC(C)(C)C)CC3)CC2)c1	A549 viability 18µM, Nrf2 block inconclusive (no result: p53 reactivator)
Cc1ccc(C)c(N2CCN(CCCNC(=O)c3cnn(-c4cccc(Cl)c4)c3C3CCN(C(=O)OC(C)(C)C)CC3)CC2)c1	A549 viability inconclusive, Nrf2 block inconclusive (no result: p53 reactivator)
Cc1ccc(C)c(N2CCN(C(=O)c3cnn(C(C)(C)C)c3C3CCN(C(=O)OC(C)(C)C)CC3)CC2)c1	Nrf2 block 21µM (no result: p53 reactivator)
COc1ccc(OC)c(CCNC(=O)c2cnn(-c3ccc(C)cc3C)c2C2CCN(C(=O)OC(C)(C)C)CC2)c1	Nrf2 block 18µM (no result: p53 reactivator)
COc1ccc(OC)c(CCNC(=O)c2cnn(-c3ccccc3)c2C2CCN(C(=O)OC(C)(C)C)CC2)c1	miR-21 FLuc inconclusive, Nrf2 block inconclusive (no result: p53 reactivator)
Cc1ccc(C(C(=O)Nc2ccc3c(c2)OCO3)N(C)C(=O)Cc2c[nH]c3ccccc23)cc1 (stereo not given)	A549 viability inconclusive, Nrf2 block 23µM
C=CCn1c(=N)n(CC(=O)OCC)c2ccccc21	ClpP mod 25µM
N=c1n(CCCOc2ccc(F)cc2)c2ccccc2n1CC(N)=O	none (no result: ClpP mod)
CCOC(=O)Cn1c(=N)n(CCOc2ccc(F)cc2)c2ccccc21	ClpP mod 4µM
CCCS(=O)(=O)c1c(S(=O)(=O)CCC)c2cc(C(C)(C)C)ccn2c1C(=O)c1ccc(C)cc1	none (no result: p53 reactivator)
Cc1nn(C)c2c1c(-c1ccccc1)cc(=O)n2Cc1ccccc1C#N	ClpP mod inconclusive (no result: p53 reactivator)
CCOC(=O)c1ccccc1NC(=O)CN(c1ccccc1OC)S(=O)(=O)c1ccc(C)cc1	none (no result: Nrf2 block, p53 reactivator)
COc1cc(CNc2ccc(C(=O)O)cc2)cc(Br)c1OCC(=O)NC(C)(C)C	Nrf2 block inconclusive
C=CCOc1c(Br)cc(CNc2ccc(NC(=O)C(C)C)c(OC)c2)cc1OC	Nrf2 block 9.2µM
COc1ccccc1N(Cc1cc2cccc(C)c2[nH]c1=O)C(=O)c1cccc(Cl)c1	A549 viability inconclusive, miR-21 FLuc inconclusive, Nrf2 block inconclusive, ClpP mod 25µM (no result: p53 reactivator)
Cc1cccc2cc(CN(C(=O)c3cccc(Cl)c3)c3ccccc3)c(=O)[nH]c12	none (no result: p53 reactivator)
O=C1/C(=C/N(C(=O)c2ccco2)c2ccc(Cl)cc2)Sc2ccccc21	Nrf2 activator inconclusive, ClpP mod 10µM, p53 reactivator 28µM
Cc1nc([N+](=O)[O-])c(Br)n1CC(=O)c1ccc(F)cc1	none (no result: ClpP mod)
Cc1nc([N+](=O)[O-])c(Br)n1Cc1ccccc1	Nrf2 activator 10µM, Nrf2 block inconclusive
[O-][N+]12CCCc3cccc(c31)CCC2	none (no result: A549 viability, Nrf2 activator, miR-21 FLuc, Nrf2 block, p53 reactivator)
Cc1ccc(CN2CCCn3nc(C(=O)NCc4cc(C)ccc4C)cc3C2=O)cc1	none (no result: Nrf2 block, p53 reactivator)
COc1ccc(S(=O)(=O)N2CCC(C(=O)Nc3ccc4c(c3)OCCO4)CC2)cc1OC	Nrf2 block 21µM
CC(=O)N1CCOc2ccc(S(=O)(=O)N3CCC(C(=O)Nc4ccc(C)c(C)c4)CC3)cc21	Nrf2 block 16µM
CCN(C(=O)Nc1cn(CC(C)C)c(=O)c2ccccc12)c1cc(C)ccc1C	Nrf2 block inconclusive, ClpP mod inconclusive (no result: p53 reactivator)
CCCOc1ccccc1C1CC(=O)Nc2cc3c(cc21)OCCO3 (stereo not given)	A549 viability inconclusive, Nrf2 block 21µM
COc1cccc(C2CC(=O)Nc3cc4c(cc32)OCO4)c1OC(C)C (stereo not given)	miR-21 FLuc inconclusive, Nrf2 block inconclusive (no result: p53 reactivator)
Cc1cccc(C2CC(=O)Nc3cc4c(cc32)OCO4)c1 (stereo not given)	Nrf2 block inconclusive (no result: p53 reactivator)
CCOc1ccccc1C1CC(=O)Nc2cc3c(cc21)OCCO3 (stereo not given)	A549 viability inconclusive, Nrf2 block inconclusive, p53 reactivator inconclusive
CCOc1c(Br)cc(C2CC(=O)Nc3cc4c(cc32)OCO4)cc1OC (stereo not given)	miR-21 FLuc inconclusive, Nrf2 block 21µM (no result: p53 reactivator)
CC(C)Oc1cccc(C2CC(=O)Nc3cc4c(cc32)OCO4)c1 (stereo not given)	miR-21 FLuc inconclusive, Nrf2 block 16µM (no result: p53 reactivator)
CC(C)Oc1ccccc1C1CC(=O)Nc2cc3c(cc21)OCO3 (stereo not given)	A549 viability inconclusive, miR-21 FLuc inconclusive, Nrf2 block 7.3µM
CCc1cccc(NC(=O)Cn2nc(-c3cc(C)ccc3C)ccc2=O)c1	Nrf2 block inconclusive (no result: p53 reactivator)
Cc1ccc(Nc2nc(N)nc(CCl)n2)c(C)c1	miR-21 FLuc inconclusive
Cc1cccc(Nc2nc(N)nc(CCl)n2)c1C	A549 viability inconclusive, miR-21 FLuc inconclusive, Nrf2 block 10µM (no result: ClpP mod)
Cc1cccc(Nc2nc(N)nc(CCl)n2)c1	Nrf2 activator 14µM, miR-21 FLuc inconclusive
COc1cccc(Nc2nc(N)nc(CCl)n2)c1	Nrf2 activator 13µM (no result: ClpP mod)
COc1ccc(OC)c(Nc2nc(N)nc(CCl)n2)c1	miR-21 FLuc inconclusive (no result: ClpP mod)
CCC[N+](C)(C)c1ccc(/C=C/c2ccncc2)cc1	none (no result: A549 viability, Nrf2 activator, miR-21 FLuc, Nrf2 block, p53 reactivator)
COc1ccc(NC(=O)CN(C)S(=O)(=O)c2ccc3c(c2)CCCN3C(C)=O)cc1Cl	none (no result: Nrf2 block, p53 reactivator)
O=S(=O)(c1ccc(Br)cc1)N1CCn2cccc2C1c1ccc(Br)cc1 (stereo not given)	none (no result: Nrf2 block, p53 reactivator)
C/C(CC(=O)Nc1ccc(Cl)cc1Cl)=N\NC(=O)C(=O)N1CCCC1	Nrf2 block inconclusive (no result: ClpP mod)
COCCNC(=O)C(=O)N/N=C(\C)CC(=O)Nc1ccc(Cl)cc1Cl	ClpP mod 28µM
CN1C(=O)C(C)(C)c2cc(S(=O)(=O)NCc3ccc(C(=O)Nc4ccc(Cl)cc4)cc3)ccc21	miR-21 FLuc inconclusive, Nrf2 block 18µM (no result: p53 reactivator)
COc1ccc(CNc2nc3nc(C)cc(C)n3n2)cc1OC	Nrf2 block inconclusive (no result: A549 viability)
Cc1cc(C)n2nc(NCc3cccc(Br)c3)nc2n1	ClpP mod 14µM
Cc1ccc(S(=O)(=O)c2c(C)nn(C(C)(C)C)c2OC(=O)C2CCCC2)cc1	miR-21 FLuc inconclusive, Nrf2 block 21µM
